Assay [1] addresses Casein kinase I isoform alpha (Homo sapiens, UniProt P48729). In words: Inhibition of CK1alpha1 (unknown origin) after 60 mins by TR-FRET assay. In general terms: In TR-FRET formats the signal depends on donor and acceptor labels being close together.
Assay [2] addresses Tyrosine-protein kinase Fyn (Homo sapiens, UniProt P06241). In words: Inhibition of Fyn (unknown origin) after 60 mins by TR-FRET assay.
For assay [3], the target named is Protein kinase C theta type (Homo sapiens, UniProt Q04759). In words: Inhibition of PKCtheta (unknown origin) after 60 mins by TR-FRET assay.

Amino acid sequences for entries named in this document (tags omitted). A change or cut given only in a name is not applied to a line headed by its entry.
UniProt P48729: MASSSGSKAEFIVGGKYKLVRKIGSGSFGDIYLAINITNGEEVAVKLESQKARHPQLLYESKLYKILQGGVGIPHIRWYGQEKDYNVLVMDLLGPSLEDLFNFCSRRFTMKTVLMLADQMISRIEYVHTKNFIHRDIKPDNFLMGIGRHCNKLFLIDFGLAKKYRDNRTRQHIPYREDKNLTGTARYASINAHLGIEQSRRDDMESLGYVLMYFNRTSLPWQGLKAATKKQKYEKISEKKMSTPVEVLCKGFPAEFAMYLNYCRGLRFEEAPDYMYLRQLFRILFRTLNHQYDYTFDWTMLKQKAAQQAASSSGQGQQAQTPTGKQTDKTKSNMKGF
UniProt P06241, whole entry: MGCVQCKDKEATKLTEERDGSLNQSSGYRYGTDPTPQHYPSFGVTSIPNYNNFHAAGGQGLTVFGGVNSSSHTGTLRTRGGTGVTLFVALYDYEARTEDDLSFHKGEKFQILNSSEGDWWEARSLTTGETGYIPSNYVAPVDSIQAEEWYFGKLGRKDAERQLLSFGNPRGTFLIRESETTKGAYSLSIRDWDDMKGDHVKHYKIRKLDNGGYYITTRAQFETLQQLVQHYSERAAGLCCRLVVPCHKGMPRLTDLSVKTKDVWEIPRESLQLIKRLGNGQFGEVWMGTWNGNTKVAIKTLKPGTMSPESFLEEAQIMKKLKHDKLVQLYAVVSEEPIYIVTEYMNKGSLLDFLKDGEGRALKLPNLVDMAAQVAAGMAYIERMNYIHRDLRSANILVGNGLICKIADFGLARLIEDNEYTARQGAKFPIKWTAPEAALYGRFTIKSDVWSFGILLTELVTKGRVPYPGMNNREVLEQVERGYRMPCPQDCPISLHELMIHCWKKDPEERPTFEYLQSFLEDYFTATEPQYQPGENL
UniProt Q04759: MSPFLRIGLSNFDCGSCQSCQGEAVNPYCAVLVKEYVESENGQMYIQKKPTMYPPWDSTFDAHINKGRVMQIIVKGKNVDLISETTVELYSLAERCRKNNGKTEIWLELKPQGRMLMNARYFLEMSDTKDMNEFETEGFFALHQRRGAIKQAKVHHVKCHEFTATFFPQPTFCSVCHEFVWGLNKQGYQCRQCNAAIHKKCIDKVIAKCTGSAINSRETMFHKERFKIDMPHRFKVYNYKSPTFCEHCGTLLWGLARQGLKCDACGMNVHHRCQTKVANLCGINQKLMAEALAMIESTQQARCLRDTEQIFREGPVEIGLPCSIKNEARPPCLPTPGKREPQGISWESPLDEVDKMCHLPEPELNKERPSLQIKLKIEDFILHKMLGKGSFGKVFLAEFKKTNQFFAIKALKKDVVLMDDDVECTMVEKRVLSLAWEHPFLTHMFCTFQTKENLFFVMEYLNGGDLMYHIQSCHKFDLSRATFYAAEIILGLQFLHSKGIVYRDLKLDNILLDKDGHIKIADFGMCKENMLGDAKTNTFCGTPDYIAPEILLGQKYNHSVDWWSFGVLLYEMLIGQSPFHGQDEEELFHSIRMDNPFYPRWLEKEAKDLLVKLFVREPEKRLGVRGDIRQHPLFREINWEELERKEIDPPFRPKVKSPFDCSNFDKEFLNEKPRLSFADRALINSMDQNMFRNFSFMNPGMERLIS

We go through one compound from ChEMBL document CHEMBL4007384, “Synthesis and optimization of furano[3,2-d]pyrimidines as selective spleen tyrosine kinase (Syk) inhibitors” (Bioorg Med Chem Lett, 2016).

By pIC50 is commonly meant the IC50 on a negative log10 scale, so that one unit is a factor of ten. A lower pIC50 goes with a high IC50.

pIC50: −log10 of the molar value.

For `FC(F)(F)CNc1nc(Nc2ccc3cn[nH]c3c2)nc2ccoc12`, the figures for the pIC50 in assay [1], in assay [2] and in assay [3] were 5.28, 5.27 and under 5.00, respectively.
